Assay [1] addresses cognate tau peptide of CBTAU-27.1 (not named for ITC and Octet) (human). The experiment in a line: ITC; in solution, MicroCal Auto-iTC200; peptide ~10-35 μM, antibody 130-205 μM; fit to a single set of sites, antibody:tau peptide = 1:2.
Assay [2] has as its target recombinant tau (rtau), human tau-441 isoform (2N4R) with C291A and C322A (human) (UniProt P10636). The experiment in a line: SEC-MALS; 15 μM monomer rtau incubated with dmCBTAU-27.1 at rtau:IgG1 = 1:0.6 for 15 min, centrifuged 15 min at 20,000 g; TSKgel G3000SWxl, 150 mM sodium phosphate, 50 mM NaCl, pH 7.0. (In general: Size exclusion chromatography separates by hydrodynamic size, large species first.)

Amino acid sequences for entries named in this document (tags omitted). Chains listed by the source or under a name are the forms on record and can include a tag or linker.
UniProt P10636, other isoform, or with tags, fused parts or gaps C291A | C322A | C291A C322A: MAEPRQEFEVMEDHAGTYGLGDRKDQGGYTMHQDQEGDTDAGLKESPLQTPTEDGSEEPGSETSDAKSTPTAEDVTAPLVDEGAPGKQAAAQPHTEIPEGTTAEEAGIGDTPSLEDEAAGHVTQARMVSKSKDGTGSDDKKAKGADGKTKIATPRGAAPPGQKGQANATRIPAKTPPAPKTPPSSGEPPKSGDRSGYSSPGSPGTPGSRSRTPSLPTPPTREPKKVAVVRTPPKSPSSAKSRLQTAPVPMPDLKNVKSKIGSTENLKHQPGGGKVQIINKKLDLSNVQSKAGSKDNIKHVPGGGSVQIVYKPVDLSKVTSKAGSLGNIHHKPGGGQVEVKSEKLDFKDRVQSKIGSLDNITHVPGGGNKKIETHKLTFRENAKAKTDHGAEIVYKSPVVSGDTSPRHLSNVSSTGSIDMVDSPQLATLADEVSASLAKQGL

The target of assay [3] is cognate tau peptide of CBTAU-28.1 (not named for ITC and Octet) (human). The assay can be described thus: ITC; in solution, MicroCal Auto-iTC200; peptide ~10-35 μM, antibody 130-205 μM; fit to a single set of sites, antibody:tau peptide = 1:2. (In general: In ITC the heat of successive injections is recorded.)

For “dmCBTAU-27.1 (human IgG1), CBTAU-27.1 double mutant Ser27D to Tyr / Thr94 to Ile (antibody)”, in assay [1], the fold improvement in affinity over CBTAU-27.1 is above 50 fold. The stoichiometry N (tau monomers per antibody) in assay [2] was 2.

In assay [3], “dmCBTAU-28.1 (human IgG1), CBTAU-28.1 double mutant Ser32 to Arg / Glu35 to Lys (antibody)” returned a fold improvement in affinity over CBTAU-28.1 of 4 fold.

These data come from publication PMC5984341.
